Laboratory results taken from patent publication US20180016554A1, “HUMAN SERUM ALBUMIN-CONTAINING CULTURE MEDIUM FOR GROWTH OF NEURAL STEM CELLS” (AJINOMOTO CO., INC., priority 2015, published 2018).

Assays:
Type in all cases: cell-based
[1] = tested on: neurosphere (neural stem cells and/or neural progenitor cells induced from human pluripotent stem cells); experiment: Functional evaluation of human serum albumin: morphology of neurospheres after 14 days' suspension culture; details: 14 days' culturing; for morphology of the neurosphere formed: microscope
Method: Media hormone mix (MHM) medium added with B27 supplement (1x; Life Technologies), bFGF (PeproTech inc.), hLIF (Millipore), Y27632 (Wako Pure Chemical Industries, Ltd.) was produced, and iPS cells dispersed in TrypLE™ Select to single cells were cultured in suspension in the medium under 37° C., 5% CO2, 4% O2 environment. The medium was exchanged every 7 days. After culturing, neural stem cells and/or neural progenitor cells formed neurosphere which is a spherical cell aggregate.
Media hormone mix (MHM) medium (Life Technologies) added with B27 supplement (1×; Life Technologies), bFGF (final concentration 20 ng/mL; PeproTech inc.), hLIF (final concentration 10 ng/mL; Millipore) was produced, and neural stem cells and/or neural progenitor cells induced from human pluripotent stem cells were cultured in suspension in the medium under 37° C., 5% CO2, 4% O2 environment. The medium was exchanged every 7 days. After culturing, neural stem cells and/or neural progenitor cells formed neurosphere which is a spherical cell aggregate.
TrypLE Select (Life Technologies) was used for passaging the neurosphere. The medium was removed from the culture dish during neurosphere culture and replaced with TrypLE Select. The cells were incubated in TrypLE Select at 37° C. for 10 min, and thereafter pipetted to give single cells. The dispersed cells were seeded in the above-mentioned medium at 1.0×10^5 cells/mL, and cultured in suspension in the medium under 37° C., 5% CO2 environment.
Using the neurosphere cultured in (2), functional evaluation of the medium was performed. Media hormone mix (MHM) medium (Life Technologies) added with bFGF (final concentration 20 ng/mL) and hLIF (final concentration 10 ng/mL) was produced and used as a test basal medium. Neurosphere was cultured in the test basal medium added with human serum albumin (Essentially fatty acid free (−0.005%), Sigma Aldrich) at a final concentration of 0.2, 1 or 2.1 mg/mL (human serum albumin-added medium) or a medium without the addition (control medium), and functional evaluation of the human serum albumin was performed. The medium was exchanged every 7 days and, after 14 days' culturing, the morphology of the neurosphere formed was observed under a microscope. (Before the start of the culture in (3), the medium used before culturing in (3) was sufficiently diluted and removed to reduce incorporation of the medium as much as possible.)

[2] = tested on: LtNES cells induced from human pluripotent stem cells; experiment: Functional evaluation of human serum albumin: cell number of LtNES cells after culture; details: 4 to 5 days' culturing
Method: EB was formed from iPS cells, and cultured in a medium obtained by adding transferrin (final concentration 0.5 to 10 μg/ml) and ethanolamine (final concentration 5 to 50 μM) to a medium corresponding to a composition of E6 medium (Life Technologies or STEMCELL Technologies) without ascorbic acid and transferrin for 4 days. EB was seeded in a dish coated with poly-L-ornithine (PO), cultured for about 10 days in the above-mentioned medium, and formation of a rosette-like structure was confirmed. The rosette part was removed, and subjected as neurosphere to suspension culture in the above-mentioned medium for about 7 days. The neurosphere was dispersed in trypsin/EDTA, and cultured in the above-mentioned medium on a dish coated with PO/laminin to give LtNES cells. The LtNES cells are composed of a mixture of neural stem cells and neural progenitor cells.
Transferrin (final concentration 0.5 to 10 μg/ml), ethanolamine (final concentration 5 to 50 μM) and bFGF (final concentration 5 to 100 ng/ml) were added to a medium corresponding to a composition of E6 medium (Life Technologies or STEMCELL Technologies) without ascorbic acid and transferrin to produce a test basal medium.
Albumin derived from human serum (Sigma Aldrich) was added to the test basal medium at a final concentration of 0, 0.21, 1, 2.1 mg/ml to give test media.
Using each test medium, LtNES cells (1.5×10^5 cells) induced from human pluripotent stem cells were cultured. The cells were cultured in an incubator at 37° C., 5% CO2 atmosphere. The medium was exchanged every two days, and the cells were cultured for 4 to 5 days. After culturing, cell dispersion treatment was performed by adding TrypLE Select instead of the test medium and then incubating it at 37° C. for 1 min. TrypLE Select was diluted with the medium, pipetting was performed to give single cells, and the number of the cells was counted and evaluated. Dead cells were stained with Trypan Blue (Life Technologies Inc.) and the cell number was measured by hemocytometer.

[3] = tested on: neurosphere derived from human pluripotent stem cells; experiment: Differentiation induction into nerve cells of neurospheres cultured in human serum albumin-added medium, βIII tubulin immunostaining; details: neurosphere cultured 14 days in 2.1 mg/mL human serum albumin-added medium, then 20 days differentiation induction culture
Method: Similar to Example 1, neurosphere derived from human pluripotent stem cells was cultured in 2.1 mg/mL human serum albumin-added medium for 14 days, and differentiation induction culture was performed. For the differentiation induction culture, the neurosphere cultured in human serum albumin-added medium was subjected to a dispersion treatment. TrypLE Select (Life Technologies) was used for the dispersion treatment. The medium was removed from the culture dish during neurosphere culture and replaced with TrypLE Select. The cells were incubated in TrypLE Select at 37° C. for 10 min, and thereafter pipetted to give single cells. The number of the cells was measured using a hemocytometer. The dispersed cells were seeded in a 48 well plate, coated with poly-L-ornithine/fibronectin, at 1.5×10^5 cells/well, and cultured in Media hormone mix (MHM) medium (Life Technologies) added with B27 supplement (1×; Life Technologies) for 20 days. Culturing was performed under 37° C., 5% CO2 environment, and the medium was exchanged every two days.
After culturing, the cells were fixed and immunostained using antibody against βIII tubulin as a nerve cell marker.

For human serum albumin, the “morphology of the neurosphere formed” value ([1]; 0.2 mg/mL human serum albumin in medium) was “showed a cell form with an elongated protrusion seen in a part of the differentiated cells; also recorded: partly lost a neurosphere-like form”, the “morphology of the neurosphere formed” value ([1]; 1 mg/mL human serum albumin in medium) was “maintained the spherical form; also recorded: maintained good neurosphere form” and the “morphology of the neurosphere formed” value ([1]; 2.1 mg/mL human serum albumin in medium) was “maintained the spherical form; also recorded: maintained good neurosphere form”. The “differentiation suppressive tendency on the neurosphere” value ([1]; 0.2, 1, 2.1 mg/mL human serum albumin) was “concentration-dependent differentiation suppressive tendency”, the “cell number (proliferation) of LtNES cells” value (shortened to “cell number (proliferation)”) ([2]; 0.21 mg/ml human serum albumin) was “showed good proliferation; also recorded: showed good growth” and the “cell number (proliferation)” value ([2]; 1 mg/ml human serum albumin) was “cell number increased most; also recorded: number of cells increased most”. For the same substance, the “cell number (proliferation)” value ([2]; 2.1 mg/ml human serum albumin) was “showed good proliferation; also recorded: showed good growth” and the “βIII tubulin positive nerve cells after differentiation induction culture” value [3] was “contained many βIII tubulin positive nerve cells; also recorded: Many βIII tubulin (green)-positive nerve cells were observed”.

“Also recorded” adds a separate entry of the source.
